Read-outs that look alike come from different tables or passages of the source.

Amino acid sequences for entries named in this document (tags omitted). A change or cut given only in a name is not applied to a line headed by its entry.
UniProt P33534: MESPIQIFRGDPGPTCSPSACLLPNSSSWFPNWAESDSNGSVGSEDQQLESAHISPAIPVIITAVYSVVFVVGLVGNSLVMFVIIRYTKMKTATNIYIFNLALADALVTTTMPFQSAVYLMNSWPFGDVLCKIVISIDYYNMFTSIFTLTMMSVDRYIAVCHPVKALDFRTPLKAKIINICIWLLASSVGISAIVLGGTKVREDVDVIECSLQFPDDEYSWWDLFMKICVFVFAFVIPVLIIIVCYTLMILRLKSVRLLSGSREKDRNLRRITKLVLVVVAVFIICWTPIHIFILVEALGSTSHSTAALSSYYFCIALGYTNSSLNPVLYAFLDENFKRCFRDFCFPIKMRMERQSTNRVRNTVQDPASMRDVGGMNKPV

What is called EC50 is the concentration that produces a half-maximal response. Usually Ki stands for the dissociation constant of the complex between target and ligand, obtained from inhibition or displacement.

Assay [1] addresses T1, kOR (Mus musculus, UniProt P33534). In kind it is cell-based. Conditions: read-out: EC50 of beta arrestin recruitment. (Arrestin recruitment assays detect the binding of arrestin to an activated receptor.)
Assay [2] concerns the target T1, kOR. The format is cell-based. To be noted: read-out: EC50 of kOR activation (cAMP).
Assay [3] concerns the target T1, kOR. In kind it is binding. To be noted: read-out: Ki value.

In the case of dynorphin A 1-13, the EC50 is 183 nM at kOR [1] and 14 nM at kOR [2]. For the same substance, the Ki on kOR [3] stood at 0.28 nM.

The record behind these values is US20240269230A1 (priority 2020, published 2024).
